For one molecule, IC50 results are on record in BindingDB's records for doi:10.1021/jm101621u (University of Utah, 2011).

The chains behind the UniProt entries cited, without tags or fusion partners.
UniProt Q8NER1, whole entry: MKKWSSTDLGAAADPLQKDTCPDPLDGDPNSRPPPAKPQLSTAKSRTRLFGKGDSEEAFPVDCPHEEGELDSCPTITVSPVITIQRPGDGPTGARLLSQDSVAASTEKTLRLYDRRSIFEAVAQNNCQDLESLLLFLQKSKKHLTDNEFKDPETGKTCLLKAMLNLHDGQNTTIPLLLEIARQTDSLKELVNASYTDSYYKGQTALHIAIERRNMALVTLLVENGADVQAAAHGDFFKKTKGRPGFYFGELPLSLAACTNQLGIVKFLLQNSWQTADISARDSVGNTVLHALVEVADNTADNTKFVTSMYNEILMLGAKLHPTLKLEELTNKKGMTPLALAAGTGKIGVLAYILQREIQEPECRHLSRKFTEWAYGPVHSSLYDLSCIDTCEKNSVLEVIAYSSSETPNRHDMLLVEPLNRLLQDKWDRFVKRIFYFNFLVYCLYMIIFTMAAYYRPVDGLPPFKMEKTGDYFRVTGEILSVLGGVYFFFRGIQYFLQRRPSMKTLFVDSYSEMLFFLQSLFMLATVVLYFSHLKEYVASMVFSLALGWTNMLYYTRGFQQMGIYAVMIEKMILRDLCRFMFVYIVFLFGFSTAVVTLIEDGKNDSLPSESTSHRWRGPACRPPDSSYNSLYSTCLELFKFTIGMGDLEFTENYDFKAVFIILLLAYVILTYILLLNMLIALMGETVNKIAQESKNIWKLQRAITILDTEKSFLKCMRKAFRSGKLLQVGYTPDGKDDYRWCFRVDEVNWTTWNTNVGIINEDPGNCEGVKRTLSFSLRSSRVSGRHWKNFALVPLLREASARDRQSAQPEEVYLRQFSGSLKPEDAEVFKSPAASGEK

The test deals with Transient receptor potential cation channel subfamily V member 1 (Homo sapiens, UniProt Q8NER1). Put plainly: Antagonist activity at human TRPV1 expressed in HEK293 cell assessed as inhibition of capsaicin-induced calcium flux by fluorometric analysis. Summed up: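 Human wild-type TRPV1 transiently transfected into HEK-293 cells and cultured 48 h, then loaded with Fluo-4 at 37°C. […] Ca2+ fluorescence monitored 1 min; rate and ΔFmax expressed relative to capsaicin-only cells; n=3.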

Regarding `C/C=C(\NC(=O)[C@H](C)NC(=O)[C@@H](NC(=O)[C@H](NC(=O)[C@H](Cc1ccccc1)NC(=O)[C@@H](CC(C)C)NC(=O)[C@@H](Cc1ccccc1)NC(=O)CC)[C@@H](C)O)C(C)C)C(=O)O` [Nobilamide B], the IC50 worked out at 275 µM.
